Earlier results in patent US9752110B2, “Method and compositions of preserving wine” (YSDR, LLC, priority 2008, dated 2017).

Test system: eNOS
Settings: cited from earlier work

COc1cc(-c2[o+]c3cc(O)cc(O)c3cc2O)ccc1O [paeodnidin]
eNOS expression or eNOS promoter activity: did not change
